According to US20140086916A1:

Tests used:
[1] = target: FcγRIIA H (UniProt P12318); experiment: FcγR affinity assay 'as described in Example 7', n = 3; printed as Affinity (nM) ± STDEV
[2] = target: FcγRIIA H (UniProt P12318); experiment: fold change of the Table 12 affinities (reference row)
[3] = target: FcγRIIIa-V158 (Pichia pastoris produced) (UniProt P08637); experiment: FcγR affinity assay 'as described in Example 7', n = 3; printed as Affinity (nM) ± STDEV; footnote: values > ~5000 nM mean a poor binder
[4] = target: FcγRIIIa-V158 (Pichia pastoris produced) (UniProt P08637); experiment: fold change of the Table 12 affinities
[5] = target: FcγRIIIa-F158 (Pichia pastoris produced) (UniProt P08637); experiment: FcγR affinity assay 'as described in Example 7', n = 3; printed as Affinity (nM) ± STDEV; footnote: values > ~5000 nM mean a poor binder
[6] = target: FcγRIIb (Pichia pastoris produced) (UniProt P31994); experiment: FcγR affinity assay 'as described in Example 7', n = 3; printed as Affinity (nM) ± STDEV
[7] = target: FcγRIIb (Pichia pastoris produced) (UniProt P31994); experiment: fold change of the Table 12 affinities
[8] = target: FcγRIIIa-F158 (Pichia pastoris produced) (UniProt P08637); experiment: fold change of the Table 12 affinities

pKd [1]: 5.98
fold change in affinity vs Anti-TNF IgG1 GS5.0 [2]: 1 fold
Substance: Anti-TNF IgG1 GS5.0 (wild type Fc) (antibody; other documents disagree on this pair)

pKd [3]: 5.29
fold change in affinity vs Anti-TNF IgG1 GS5.0 [4]: 98 fold
Substance: Anti-TNF alpha QM (F243A/V264A/S267E/L328F quadruple mutein) (antibody)

pKd [5]: 5.09
pKd [6]: 7.48
fold change in affinity vs Anti-TNF IgG1 GS5.0 [7]: 21 fold
fold change in affinity vs Anti-TNF IgG1 GS5.0 [8]: 17 fold
Substance: Anti-TNF alpha QM (F243A/V264A/S267E/L328F quadruple mutein) (antibody; other documents disagree on this pair)

pKd: −log10 of the molar value. One block for each substance: values may come before it.
